According to publication PMC10993414, “Water Quality Monitoring with the Multiplexed Assay MitoOxTox for Mitochondrial Toxicity, Oxidative Stress Response, and Cytotoxicity in AREc32 Cells” (Environmental Science & Technology, 2024):

Tests used:
[1] = system: mitochondrial membrane potential (MMP) in AREc32 cells; test: Disruption of mitochondrial membrane potential (m-MPI red/green ratio), MitoOxTox; conditions: AREc32, 24 h exposure
[2] = system: AREc32 cells; test: Cytotoxicity (cell confluency) with IncuCyte S3 live cell imaging, MitoOxTox; conditions: AREc32, 24 h exposure
[3] = system: AREc32 cells; test: Cytotoxicity with ImageXpress high-content imaging, MitoOxTox; conditions: AREc32, 24 h exposure
[4] = system: Nrf2-mediated oxidative stress response pathway (ARE) in AREc32 cells; test: Oxidative stress response, luciferase reporter gene assay, MitoOxTox; conditions: effect concentration leading to induction ratio 1.5; AREc32, 24 h exposure
[5] = experimental, ref Escher et al. 2000; cited from earlier work
[6] = experimental; ref PhysPropNCCT; cited from earlier work
[7] = ref Schwarzenbach et al. 1988; cited from earlier work
[8] = 10% reduction in cell viability
[9] = logarithm of IC10, Corning plates

Row | SMILES | MMP inhibition EC10 ([1]; 10% reduction of MMP) [µM] | MMP inhibition log(EC10 (M)) ([1]; logarithm of EC10) [M] | Cytotoxicity Incucyte IC10 [2, 8] [µM] | Cytotoxicity Incucyte log(IC10 (M)) [2, 9] [M] | Cytotoxicity ImageExpress IC10 [3, 8] [µM] | Cytotoxicity ImageExpress log(IC10 (M)) [3, 9] [M] | Oxidative stress response ECIR1.5 [4] [mM] | log Dlipw (pH 7.4) [5] | log Kow [L/L] [6] [L/L] | pKa (Acid) [7]
1 | Cc1cc([N+](=O)[O-])cc([N+](=O)[O-])c1O | 6.01 | -5.22 | 76.4 | -4.12 | 117 | -3.93 | > 1.26 | 2.35 | 2.13 | 
2 | O=[N+]([O-])c1ccc(O)c([N+](=O)[O-])c1 [2,4-Dinitrophenol] |  |  |  |  |  |  |  |  |  | 3.9
